The source of these data is PubChem BioAssay AID637 (SRMLSC, 2007).

By inhibition is commonly meant the change of the read-out against control, counted positive when it falls.

Structures are written as SMILES. Only a part is listed here, and it is no random draw. Some tests of the compounds listed are not included; inactive here does not mean inactive elsewhere. Calls of active or inactive are those of the source. Cut-off read from the data, not from the text of the source: active = inhibition above about 30%; inactive = the rest.

The test is described as follows: growth suppression of yeast trafficking mutant, preliminary HTS, modulators of trafficking downstream of Golgi apparatus project, 1536-format plate, OD 615 nm (AID 637). Conditions: yeast transport mutant growth, absorbance 615 nm, 18 h; hits give high values.
Take `O=C(OC1CN2CCC1CC2)C(CO)(c1ccccc1)c1ccccc1` (stereo unspecified): the inhibition is inactive: 3.06%.
